{
  "source": "patent US4162311A",
  "about": "“Medicinal preparation with pronounced vegetotropic and antiepileptic effect for treating psychoneurotic disorders” (priority 1977, dated 1979)",
  "system": "hippocamp and amygdaloid nuclei",
  "assay": "electrical activity of brain structures, implanted electrodes",
  "assay_type": "in vivo",
  "conditions": "rabbits, 100 to 200 mg/kg",
  "excerpt": "The localization of brain structures that are the most sensitive to hydrazide of diphenylphosphinylacetic acid was studied on rabbits having electrodes permanently implanted in different parts of the cerebral cortex and subcortical formations.",
  "data": [
    {"molecule": "NNC(=O)CP(=O)(c1ccccc1)c1ccccc1", "note": "[Hydrazide of diphenylphosphinylacetic acid]", "values": [
      {"measurement": "electrical activity in hippocamp and amygdaloid nuclei", "result": "reduces the electrical activity"}
    ]}
  ]
}
